In this assay the target is Peptidyl-prolyl cis-trans isomerase A (Homo sapiens, UniProt P62937). In words: Binding affinity to cyclophilin A by ELISA. A general note: An ELISA detects its analyte on a solid surface through an enzyme-linked reagent.

Amino acid sequences for entries named in this document (tags omitted).
UniProt P62937, whole entry: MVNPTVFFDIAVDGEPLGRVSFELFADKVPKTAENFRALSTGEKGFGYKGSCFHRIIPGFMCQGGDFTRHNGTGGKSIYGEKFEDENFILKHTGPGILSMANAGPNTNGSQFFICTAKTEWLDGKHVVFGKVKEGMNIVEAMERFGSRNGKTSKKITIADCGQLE

For `C/C=C/C[C@@H](C)[C@@H](O)[C@H]1C(=O)N[C@@H](CC)C(=O)N(C)[C@H](SCCN(C)C)C(=O)N(C)[C@@H](CC(C)(C)O)C(=O)N[C@@H](C(C)C)C(=O)N(C)[C@@H](CC(C)C)C(=O)N[C@@H](C)C(=O)N[C@H](C)C(=O)N(C)[C@@H](CC(C)C)C(=O)N(C)[C@@H](CC(C)C)C(=O)N(C)[C@@H](C(C)C)C(=O)N1C` [SCY 635], the IC50 – broadly, the concentration needed to halve the response being measured – stood at 9.48 nM.

The values are drawn from ChEMBL document CHEMBL1269000, “Synthesis and biological evaluation of [D-lysine]8cyclosporin A analogs as potential anti-HCV agents” (Bioorg Med Chem Lett, 2010).
